Results reported in EP4843994A1, “NOVEL PEPTIDE HAVING MUSCLE FORMATION-PROMOTING ACTIVITY, ANTI-OBESITY ACTIVITY AND ANTI-DIABETIC ACTIVITY AND USES THEREOF” (dated 2026).

Columns and labels:
3T3-L1 cells [1] = assay: Expression of adipogenesis and lipolysis related genes in insulin resistance-induced adipocytes (RT-PCR); conditions: 3T3-L1 adipocytes, 350 µM oleic acid (insulin resistance environment), peptide 5 µM, 50 µM, 48 hours
Protocol: 3T3-L1 cells (preadipocytes, American Type Culture Collection) were cultured in DMEM medium containing 2% BCS (Bovine Calf Serum) (Welgene, Korea). To differentiate 3T3-L1 cells into adipocytes, cells were seeded into 12-well culture plates at a concentration of 1 x 10^5 cells/well, and when the cells became confluent (Day=2), the medium was replaced once more and cultured for an additional 48 hours. After 48 hours (Day=0), the culture medium was replaced with DMEM medium containing 10% FBS, 1% P/S, 1 µg/ml insulin (Sigma, USA), 0.5 mM isobutylmethylxanthine (IBMX) (Sigma, USA), and 1 µM Dexamethasone (Sigma, USA), and cultured. After 2 days (Day=2), the medium was replaced with DMEM medium containing 10% FBS, 1% P/S, and 1 µg/ml insulin, and cultured. After 3 days (Day=5), the medium was replaced with one containing only 10% FBS and 1% P/S, and an insulin resistance environment was induced by treating with 350 µM oleic acid (Sigma, St. Louis, MO, USA) for 24 hours. After 24 hours of induction, the DMEM medium (10% FBS, 1% BSA) supplemented with 350 µM oleic acid (Sigma, St. Louis, MO, USA) and peptides (5 µM, 50 µM) was replaced, and the cells were cultured for 48 hours. After culture, the cells were harvested, and RNA was extracted using Trizol (Thermo Fisher Scientific, USA). The extracted RNA was used to synthesize DNA complementary to the RNA using TOPScript™ RT DryMIX (enzynomics, Korea), and then polymerase chain reaction (PCR) was performed on genes of markers related to adipogenesis and lipolysis using TOPsimple™ DryMIX-nTaq (enzynomics, Korea). Subsequently, the reaction products were run on a 1.5% agarose gel to compare the mRNA expression levels of the markers for each sample. The primer sequences for the genes used in the PCR are listed in Table 9 below, and the GAPDH gene was used as a control group.
Through the above experiment, after inducing an insulin resistance environment in 3T3-L1 adipocytes, the inhibitory effect on adipogenesis or the promotion effect of lipolysis by peptide treatment was confirmed by measuring the expression levels of related factors. […] Additionally, in 3T3-L1 adipocytes, treatment with oleic acid decreased the expression levels of the PLIN, HSL, and ATGL genes, which are factors related to lipolysis; however, when the peptide was added, the decreased expression levels of the PLIN, HSL, and ATGL genes increased again (FIGS. 21A and 21B).

3T3-L1 cells [2] = assay: Expression of insulin resistance and sensitivity related proteins in oleic acid-treated adipocytes (Western blot); conditions: 3T3-L1 adipocytes, 350 µM oleic acid, peptide 5 µM, 50 µM, 48 hours
Protocol: 3T3-L1 cells (preadipocytes, American Type Culture Collection) were cultured in DMEM medium comprising 2% BCS (Bovine Calf Serum) (Welgene, Korea). To differentiate 3T3-L1 cells into adipocytes, cells were seeded into 12-well culture plates at a concentration of 1 x 10^5 cells/well, and when the cells became confluent (Day=2), the medium was replaced once more and cultured for an additional 48 hours. After 48 hours (Day=0), the culture medium was replaced with DMEM medium comprising 10% FBS, 1% P/S, 1 µg/ml insulin (Sigma, USA), 0.5 mM isobutylmethylxanthine (IBMX) (Sigma, USA) and 1 µM Dexamethasone (Sigma, USA) and cultured. After 2 days (Day=2), the medium was replaced with DMEM comprising 10% FBS, 1% P/S, and 1 µg/ml insulin, and cultured. After 3 days (Day=5), the medium was replaced with one comprising only 10% FBS and 1% P/S, and an insulin resistance environment was induced by adding 350 µM oleic acid (Sigma, St. Louis, MO, USA) for 24 hours. After 24 hours of induction, the medium was replaced with DMEM medium (10% FBS, 1% BSA) supplemented with 350 µM oleic acid (Sigma, St. Louis, MO, USA) and peptides (5 µM, 50 µM), and cultured for 48 hours. After culture, lysis buffer was added to lyse the cells, and then the proteins were obtained by centrifugation at 12,000 rpm and 4°C for 30 minutes. The obtained proteins were then quantified using a BCA kit. […]

## C[C@@H](O)[C@H](NC(=O)CNC(=O)[C@@H](N)Cc1c[nH]cn1)C(=O)N[C@@H](Cc1ccc(O)cc1)C(=O)O
3T3-L1 cells [1]
  expression level of the ATGL gene: increased again
  expression level of the FAS gene: decreased again
  expression level of the HSL gene: increased again
  expression level of the PLIN gene: increased again
3T3-L1 cells [2]
  expression level of pAMPKα: increased again
  expression level of pIRS(Ser302): decreased again
